Measurements taken from US20240239905A1.

Target: Recombinant human FcγRIIIa (CD16A) ectodomain (human) (UniProt P08637)
Assay: SPR

Kd: 0.218 µM
Substance: cetuximab (CHO cell expressed anti-EGFR)
